# Experimental data reported in PubChem BioAssay AID795 (NMMLSC, 2007).
# This is a selection; strong and weak results do not stand in their true shares. The source made the active and inactive calls.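 Rule for the calls: active = side scatter shift above 30%; inactive = the rest.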
# Experiment: inducers of granularity increase in LNCaP cells – cell-based, flow cytometry side scatter, primary screen (AID 795);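 note: androgen-responsive LNCaP prostate cancer cells in charcoal-stripped serum medium; percent of cells past a gate set so DMSO wells show 10% shift; higher shift means more granular cells and more differentiation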
# Details: LNCaP differentiation, 4 d, at 10 µM, hits give high values
row,Structure (SMILES),side scatter shift
1,Cc1ccccc1NP(C)(=O)Nc1ccccc1C,inactive: 12%
2,CP(=O)(Nc1ccc2c(c1)OCCO2)Oc1ccccc1 (configuration not stated),inactive: 9%
3,CN(C)CCOC(=O)C(O)(c1ccccc1)C1CCCCC1 (configuration not stated),inactive: 9%
4,CP(=O)(Nc1ccccn1)Oc1ccccc1 (configuration not stated),inactive: 1%
5,Cc1nc2ccc3ccccc3c2o1.O=[N+]([O-])c1cc([N+](=O)[O-])c(O)c([N+](=O)[O-])c1,inactive: 14%
6,CP(=S)(Nn1cnnc1)Oc1ccccc1 (configuration not stated),inactive: 6%
7,Cc1ccc(C)c(NP(C)(=O)Oc2ccccc2)c1 (configuration not stated),inactive: 5%
